Laboratory results as given in patent US9539284B2 (GLOBOASIA, LLC, priority 2006, dated 2017).
Several values for one entry are separate records, joined by “and”; a condition that tells them apart may be missing. Identical values can stand only once.

How the values were obtained:
[1] = Fe3+ content per 500 mg compound (selection criterion 3); format: physicochemical; details: unit mg
From the text: 3. Appropriate equivalence of ferric ion per gram of compound. The potential ferric compound should contain enough ferric ions to effectively bind with dietary phosphate.

[2] = cited from earlier work

Substance | Fe^3+ content per 500 mg compound [1] | pKa of anionic group, pKa1 ([2]; first pKa) | pKa of anionic group, pKa2 ([2]; second pKa)
ferric bicarbonate | 117 mg | – | –
ferric succinate | 69 mg and 122 mg | pKa1 = 4.21 | pKa2 = 5.64
